From patent US6689803B2, “Compositions and methods for treating surgical adhesions” (Angiotech Pharmaceuticals, Inc., priority 1996, dated 2004)
Where two headings read alike, the source gives them in different places.

How the values were obtained:
[1] = Octanol/water partition coefficient in enhancer solutions; format: physicochemical
[2] = In vitro release of paclitaxel from polymeric formulations; format: physicochemical; conditions: star-shaped PLA and PLGA microspheres
[3] = Solubility / complexation of paclitaxel with cyclodextrins; format: physicochemical; conditions: 37° C.
[4] = system: chick chorioallantoic membrane (CAM) vasculature

Row | SMILES | Ko/w ([1]; Ethanol, octanol/PBS pH 7.4, 37° C.) | Ko/w ([1]; Isopropyl myristate, octanol/PBS pH 7.4, 37° C.) | Ko/w ([1]; Oleic acid, octanol/PBS pH 7.4, 37° C.) | Ko/w ([1]; Propylene glycol:ethanol:isopropyl myristate (4.0:3.5:0.5)) | Ko/w ([1]; Propylene glycol, octanol/PBS pH 7.4, 37° C.) | Ko/w ([1]; Transcutol:isopropyl myristate (9:1)) | Ko/w ([1]; Transcutol, octanol/PBS pH 7.4, 37° C.) | release rate relative to conventional linear PLA and PLGA microspheres [2] [times faster] | stability constant, second order complex ([3]; HPβ-CD) [M⁻¹] | stability constant, second order complex ([3]; HPγ-CD) [M⁻¹] | stability constant, second order complex ([3]; γ-CD) [M⁻¹] | Inhibition/n ([4]; PCL paste (3 mg), 0.25%) | Inhibition/n ([4]; PCL paste (3 mg), 1%) | Inhibition/n ([4]; PCL paste (3 mg), 2%) | Inhibition/n ([4]; in vivo) | Inhibition/n ([4]; methylcellulose (10 ul), 2 ug) | Inhibition/n ([4]; methylcellulose (10 ul), 9 ug)
1 | CC(=O)O[C@H]1C(=O)[C@@]2(C)[C@H]([C@H](OC(=O)c3ccccc3)[C@]3(O)C[C@H](OC(=O)[C@H](O)[C@@H](NC(=O)c4ccccc4)c4ccccc4)C(C)=C1C3(C)C)[C@]1(OC(C)=O)CO[C@@H]1C[C@@H]2O [paclitaxel] | 6.88 | ∞ | ∞ | 42.39 | 37.13 | 43.45 | 25.25 | 3 to 10 | 7965 | 1886 | 785 |  |  |  |  |  | 
2 | CC[C@]1(O)C[C@@H]2CN(CCc3c([nH]c4ccccc34)[C@@](C(=O)OC)(c3cc4c(cc3OC)N(C)[C@H]3[C@@](O)(C(=O)OC)[C@H](OC(C)=O)[C@]5(CC)C=CCN6CC[C@]43[C@@H]65)C2)C1 [vinblastine] |  |  |  |  |  |  |  |  |  |  |  | effective in inhibiting angiogenesis | effective in inhibiting angiogenesis | too toxic | effective in inhibiting angiogenesis | too toxic | too toxic
